{
  "sequences": {"note": "Sequences of proteins named here, by UniProt entry; tags and fusion partners are left off. A change or cut given only in a name is not applied to a line headed by its entry.", "UniProt Q12809": "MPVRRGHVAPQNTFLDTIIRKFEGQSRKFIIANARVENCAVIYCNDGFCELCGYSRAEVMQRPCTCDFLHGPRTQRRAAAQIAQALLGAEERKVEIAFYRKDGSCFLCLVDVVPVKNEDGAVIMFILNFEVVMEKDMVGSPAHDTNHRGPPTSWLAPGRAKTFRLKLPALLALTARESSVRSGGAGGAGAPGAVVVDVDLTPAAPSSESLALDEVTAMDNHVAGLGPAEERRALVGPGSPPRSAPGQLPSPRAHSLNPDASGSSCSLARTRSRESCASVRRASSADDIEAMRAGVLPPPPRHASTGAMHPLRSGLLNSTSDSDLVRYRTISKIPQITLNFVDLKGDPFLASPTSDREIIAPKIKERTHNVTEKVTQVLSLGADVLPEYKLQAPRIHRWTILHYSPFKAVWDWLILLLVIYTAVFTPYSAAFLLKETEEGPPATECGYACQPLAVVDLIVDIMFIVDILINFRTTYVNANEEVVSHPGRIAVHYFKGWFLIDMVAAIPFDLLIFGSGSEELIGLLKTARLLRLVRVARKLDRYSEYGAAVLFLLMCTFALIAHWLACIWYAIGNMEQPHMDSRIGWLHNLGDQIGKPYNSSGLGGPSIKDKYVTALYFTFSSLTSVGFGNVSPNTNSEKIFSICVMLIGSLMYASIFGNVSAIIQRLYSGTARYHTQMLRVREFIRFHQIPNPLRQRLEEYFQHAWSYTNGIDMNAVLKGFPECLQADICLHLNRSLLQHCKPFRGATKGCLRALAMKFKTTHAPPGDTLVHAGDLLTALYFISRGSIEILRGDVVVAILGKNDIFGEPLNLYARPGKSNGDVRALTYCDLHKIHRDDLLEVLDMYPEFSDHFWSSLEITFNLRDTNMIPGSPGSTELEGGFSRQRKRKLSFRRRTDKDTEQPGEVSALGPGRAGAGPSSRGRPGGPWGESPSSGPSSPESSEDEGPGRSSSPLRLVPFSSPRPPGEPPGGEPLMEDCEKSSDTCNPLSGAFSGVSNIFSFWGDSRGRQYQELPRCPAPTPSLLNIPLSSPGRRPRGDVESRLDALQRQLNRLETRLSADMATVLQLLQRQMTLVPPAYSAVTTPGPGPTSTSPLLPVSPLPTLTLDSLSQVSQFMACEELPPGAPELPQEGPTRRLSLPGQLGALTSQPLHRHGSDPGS"},
  "source": "patent US20060111357A1",
  "about": "“Quinoline compounds for use in mch receptor related disorders” (priority 2003, published 2006)",
  "molecular_target": "HERG channels (Homo sapiens, UniProt Q12809)",
  "test": "HERG selectivity method, whole-cell patch-clamp recordings",
  "data": [
    {"smiles": "CC(C)COCC(CN(Cc1ccccc1)c1ccccc1)N1CCCC1", "note": "(centres unmarked) [Bepridil]", "values": [
      {"measurement": "Ki", "result": "0.36 ± 0.26", "unit": "µM"}
    ]},
    {"smiles": "CNCCCN1c2ccccc2CCc2ccccc21", "note": "[Desipramine]", "values": [
      {"measurement": "Ki", "result": "35 ± 9.2", "unit": "µM"}
    ]}
  ]
}
